Measurements: PubChem BioAssay AID2465 (Broad Institute, 2010)
This is a selection; strong and weak results do not stand in their true shares. Calls of active or inactive are those of the source. No stated cut-off is given here; in the data, active means caspase activation above about 5.9%; inconclusive means no clear call, values can overlap the other calls; inactive means below about 2.2%.

assay: A1 inhibitors via caspase activation, primary screen, cell-based, luminescence, HTS, two replicates (AID 2465); conditions: MEF A1-2A-BIM cells, caspase-Glo luminescence, 3 h; hits give high values; percent of clofoctol response, DMSO zero; concentration not given here
Procedure, shortened: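 system = A1-2A-BIM-expressing MEF cells | quantity = 2500 MEF cells/well | dosing = 50 nL compound per well, pinned | schedule = overnight cell settling, then 3 h compound exposure, 37 °C | signal = luminescence from DEVD-luciferin Caspase-Glo reagent, 1:1 in 50 mM HEPES, 1 h RT | read-out = Caspase-3/7 activation, seen as rise in luminescence signal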

SMILES | caspase activation
COc1ccc(CN2/C(=N/P(=O)(Oc3ccccc3)Oc3ccccc3)CC(C)=CC2C)cc1 (stereo not drawn) | inactive: -0.0411%
COc1ccc(CN2/C(=N\P(=O)(Oc3ccccc3)Oc3ccccc3)Cc3ccccc3C2C2CC2)cc1 (stereo not drawn) | inactive: -1.07%
C=CC1C=C(C)C/C(=N\P(=O)(Oc2ccccc2)Oc2ccccc2)N1Cc1ccc(OC)cc1 (stereo not drawn) | inactive: -0.282%
